# ChEMBL document CHEMBL1124680, “Cyclic enkephalin analogues containing alpha-amino-beta-mercapto-beta,beta-pentamethylenepropionic acid at positions 2 or 5” (J Med Chem, 1989)
# Experiment: Ratio of inhibition of electrically induced contractions in GPI and MVD
smiles,measurement,value
CC(C)C[C@H](NC(=O)[C@H](Cc1ccccc1)NC(=O)CNC(=O)CNC(=O)[C@@H](N)Cc1ccc(O)cc1)C(=O)O,Ratio,21.6
